Reference: US7217704B2, “LPA receptor agonists and antagonists and methods of use” (The University of Tennessee Research Foundation, priority 2003, dated 2007)
Like-named read-outs stand apart in the source and are kept apart here.

By UniProt entry, the sequences of proteins in these tests, tags left out. Where a name states a change or a piece, a line headed by the entry shows the natural chain unless it says otherwise.
UniProt Q9HBW0, whole entry: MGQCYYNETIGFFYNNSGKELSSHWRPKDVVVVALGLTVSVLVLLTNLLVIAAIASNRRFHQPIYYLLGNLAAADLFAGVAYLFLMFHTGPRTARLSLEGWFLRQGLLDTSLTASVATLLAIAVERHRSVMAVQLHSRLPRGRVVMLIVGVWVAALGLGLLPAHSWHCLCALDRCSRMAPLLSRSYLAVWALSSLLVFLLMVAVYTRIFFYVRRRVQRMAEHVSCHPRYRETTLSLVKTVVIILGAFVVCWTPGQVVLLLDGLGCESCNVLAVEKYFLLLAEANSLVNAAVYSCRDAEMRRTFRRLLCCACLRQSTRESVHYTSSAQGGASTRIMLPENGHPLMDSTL
UniProt Q92633: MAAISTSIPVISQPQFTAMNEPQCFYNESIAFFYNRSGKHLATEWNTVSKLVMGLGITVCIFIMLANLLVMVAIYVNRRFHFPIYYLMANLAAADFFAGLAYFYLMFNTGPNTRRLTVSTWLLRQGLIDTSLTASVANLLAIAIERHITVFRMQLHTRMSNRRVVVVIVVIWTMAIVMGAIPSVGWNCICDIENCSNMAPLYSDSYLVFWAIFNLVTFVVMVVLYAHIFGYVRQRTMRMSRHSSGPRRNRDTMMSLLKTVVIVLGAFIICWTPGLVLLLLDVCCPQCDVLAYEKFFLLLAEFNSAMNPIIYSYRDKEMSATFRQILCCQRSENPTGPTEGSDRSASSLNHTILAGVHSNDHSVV

Experiments:
LPA2 [1] = biological target: T1, LPA2 (Homo sapiens, UniProt Q9HBW0); details: relative to LPA 18:1; previously reported in Virag et al. (2003); cited from earlier work
T1 construct: expressed in transfected cells

LPA2 [2] = biological target: T1, LPA2; assay: Ca2+ transients (agonism / inhibition of LPA response) in RH7777 cells stably expressing LPA2; type: cell-based
Description: (§1) The culture medium (DMEM containing 10% FBS) was then replaced with modified Krebs solution (120 mM NaCl, 5 mM KCl, 0.62 mM MgSO4, 1.8 mM CaCl2, 10 mM HEPES, 6 mM glucose, pH 7.4) and the cells were serum starved for 6–8 hours (12 h for PC-3 cells). Cells were loaded with Fura-2 AM for 35 minutes in modified Krebs medium. The Fura-2 was removed before loading the plate in the FlexStation instrument by replacing the medium once again with 100 μl modified Krebs medium/well. Plates were incubated for 4 minutes in the instrument to allow for warming to 37° C. Changes in intracellular Ca^2+ concentration were monitored by measuring the ratio of emitted light intensity at 520 nm in response to excitation by 340 nm and 380 nm wavelength lights, respectively. Each well was monitored for 80–120 seconds. […] Time courses were recorded using the SoftMax Pro software (Molecular Devices, Sunnyvale, Calif.). Ca^2+ transients were quantified automatically by calculating the difference between maximum and baseline ratio values for each well.
(§2) Each FAP analog was tested for the ability to induce Ca^2+ transients in RH7777 cells transfected with LPA1-3 receptors (agonism), as well as the ability to inhibit LPAinduced Ca^2+ transients in the same cells (antagonism) (Table 3).

LPA1 = biological target: T2, LPA1 (Homo sapiens, UniProt Q92633); assay: Ca2+ transients (agonism / inhibition of LPA response) in RH7777 cells stably expressing LPA1; type: cell-based; details: for EC50: induction of Ca2+ transients; for IC50 / Ki: inhibition of LPA-induced Ca2+ transients
T2 construct: expressed in transfected cells
Description: as §1, §2

LPA3 = biological target: T3, LPA3 (Homo sapiens, UniProt Q9UBY5); assay: Ca2+ transients (agonism / inhibition of LPA response) in RH7777 cells stably expressing LPA3; type: cell-based
T3 construct: expressed in transfected cells
T3 sequence (Q9UBY5 1-353): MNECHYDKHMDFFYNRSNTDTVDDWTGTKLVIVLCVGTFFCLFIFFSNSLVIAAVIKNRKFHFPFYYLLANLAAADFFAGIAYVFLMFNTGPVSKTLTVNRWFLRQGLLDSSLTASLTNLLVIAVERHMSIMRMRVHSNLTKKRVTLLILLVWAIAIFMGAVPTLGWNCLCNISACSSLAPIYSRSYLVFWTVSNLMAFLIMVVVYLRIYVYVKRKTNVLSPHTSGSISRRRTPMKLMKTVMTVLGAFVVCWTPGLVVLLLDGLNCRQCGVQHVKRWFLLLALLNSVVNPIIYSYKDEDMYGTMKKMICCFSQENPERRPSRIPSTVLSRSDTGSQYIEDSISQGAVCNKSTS
Description: as §1, §2

[3] = maximal efficacy of the drug/maximal efficacy of LPA 18:1

Row | SMILES | EC50 (LPA1) | IC50 (LPA1) | Ki (LPA1) | other results
1 | CCCCCCCCCCOP(=O)(O)O [Compound 2a] | – | – | – | LPA2 (Emax) (LPA2 [1]): 82%
2 | CCC=CCCCCCCCCOP(=O)(O)O [Compound 5c, Phosphoric acid monododec-9-enyl ester] | – | – | – | Emax (LPA2 [2]; RH7777, maximal efficacy of the drug/maximal efficacy of LPA 18:1, read-out: LPA2 (Emax)): 78%
3 | CCCCC=CCCCCCCCCOP(=O)(O)O [Compound 5d, Phosphoric acid monotetradec-9-enyl ester] | > 30000 nM | 3000 nM | 1150 nM | –
4 | CCC=CCCCCCCCCCCOP(=O)(O)O [Compound 5e, Phosphoric acid monotetradec-11-enyl ester] | > 30000 nM | 2200 nM | 457 nM | –
5 | CCCCCCCCC=CCCCCCCCCOP(O)(O)=S [Compound 8g, Thiophosphoric acid O-octadec-9-enyl ester] | – | – | – | Emax (LPA3; RH7777, read-out: LPA3 (Emax)): 78%; LPA3 (Emax) (LPA3; [3]): 78%; Emax (LPA2 [2]; RH7777, read-out: LPA2 (Emax)): 175%; LPA2 (Emax) (LPA2 [2]; [3]): 175%
